Laboratory results from patent US6008227A, “Process for blocking 5-HT and dopamine uptake with biologically active tropane derivatives” (Wake Forest University, priority 1993, dated 1999).
Where two headings read alike, the source gives them in different places.

The chains behind the UniProt entries cited, without tags or fusion partners.
UniProt P31652, whole entry: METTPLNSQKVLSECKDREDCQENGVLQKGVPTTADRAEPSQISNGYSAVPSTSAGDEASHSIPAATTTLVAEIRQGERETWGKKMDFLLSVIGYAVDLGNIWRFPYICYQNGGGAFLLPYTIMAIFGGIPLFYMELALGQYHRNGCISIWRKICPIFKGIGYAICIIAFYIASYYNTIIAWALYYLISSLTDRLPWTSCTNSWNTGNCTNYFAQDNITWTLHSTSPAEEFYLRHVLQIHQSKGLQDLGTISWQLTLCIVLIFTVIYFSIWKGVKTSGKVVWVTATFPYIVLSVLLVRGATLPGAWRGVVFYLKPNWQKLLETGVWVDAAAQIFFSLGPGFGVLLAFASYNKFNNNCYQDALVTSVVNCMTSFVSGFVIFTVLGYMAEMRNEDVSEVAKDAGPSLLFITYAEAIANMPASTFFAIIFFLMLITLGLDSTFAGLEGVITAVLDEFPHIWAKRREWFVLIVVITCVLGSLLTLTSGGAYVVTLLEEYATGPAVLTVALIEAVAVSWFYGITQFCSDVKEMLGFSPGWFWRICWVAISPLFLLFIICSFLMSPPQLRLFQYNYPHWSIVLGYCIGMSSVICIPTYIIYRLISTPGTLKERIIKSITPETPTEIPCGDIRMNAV
UniProt P23977, whole entry: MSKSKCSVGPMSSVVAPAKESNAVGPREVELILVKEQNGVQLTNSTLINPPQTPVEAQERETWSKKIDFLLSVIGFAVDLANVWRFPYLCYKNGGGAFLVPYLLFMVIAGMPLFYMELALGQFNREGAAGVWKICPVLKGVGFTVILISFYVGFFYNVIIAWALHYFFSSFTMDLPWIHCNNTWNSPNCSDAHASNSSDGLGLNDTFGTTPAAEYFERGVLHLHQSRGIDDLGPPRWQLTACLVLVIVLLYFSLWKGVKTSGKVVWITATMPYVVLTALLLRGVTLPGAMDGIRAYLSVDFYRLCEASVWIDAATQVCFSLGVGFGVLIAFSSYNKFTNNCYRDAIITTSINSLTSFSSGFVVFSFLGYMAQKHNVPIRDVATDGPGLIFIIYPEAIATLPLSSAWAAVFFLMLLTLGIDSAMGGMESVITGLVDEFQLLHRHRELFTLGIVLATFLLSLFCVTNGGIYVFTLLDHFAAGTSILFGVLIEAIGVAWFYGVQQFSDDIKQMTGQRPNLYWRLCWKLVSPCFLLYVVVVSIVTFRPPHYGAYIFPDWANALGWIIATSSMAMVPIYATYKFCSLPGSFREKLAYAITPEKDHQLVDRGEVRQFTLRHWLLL

Key:
[1] = molecular target: T1, 5-HT transporter (Rattus norvegicus, UniProt P31652); assay: Displacement of [^3 H]paroxetine binding to 5-HT transporter sites in rat frontal cortex; design: from tissue; host or cells: rat frontal cortex
[2] = molecular target: T2, dopamine transporter (Rattus norvegicus, UniProt P23977); assay: Displacement of [^125 I]RTI-55 binding to dopamine transporters in rat striatal membranes; conditions: 5-HT K1 / DA K1; higher numbers demonstrate relatively greater dopamine transporter potency
T2 construct: was used to label dopamine transporters in rat striatal membranes; from tissue; host or cells: rat striatal membranes

[3] = molecular target: T1, 5-HT transporter; assay: Inhibition of [^3 H]5-HT uptake in dissociated frontal cortex cells from fetal and adult rat brain; assay type: cell-based; design: from tissue; host or cells: rat frontal cortex

| SMILES | Ki [1] [nM] | binding ratio [2] | IC50 [3] [nM] | Ki ([1]; read-out: [^3 H] paroxetine K1, [^3 H]paroxetine, rat frontal cortex) [nM] |
| --- | --- | --- | --- | --- |
| COC(=O)[C@@H]1[C@@H](c2ccccc2)C[C@@H]2CC[C@H]1N2C (relative stereo) [WF-6] | > 10000 |  |  |  |
| COC(=O)[C@H]1[C@@H](c2ccccc2)C[C@@H]2CC[C@H]1N2C (relative stereo) [WF-10] | 1290 ± 51 | 13.1 |  |  |
| COC(=O)[C@H]1[C@@H](OC(=O)c2ccccc2)C[C@@H]2CC[C@H]1N2C [cocaine, reference compound] |  |  | 591 ± 48 | 302 ± 22 |
